Kact of CaM for the activation of eNOS (eNOS activity data for two substances are collected here from PMC4382182, “Characterization of Phospho-(Tyrosine)-Mimetic Calmodulin Mutants” (PLoS ONE, 2015).

In this experiment the target is endothelial nitric oxide synthase (eNOS) (bovine recombinant baculovirus-expressed in Sf9 cells) (bovine) (UniProt P29473).

For “CaM(Y99E/Y138E) (from UniProt P0DP30 1-149) (natural protein)”, the Kact of CaM for the activation of eNOS (eNOS activity at increasing concentrations of CaM) was 0.1 µM.

In the case of “wild type calmodulin (CaM) (from UniProt P0DP30 1-149) (natural protein)”, the Kact of CaM for the activation of eNOS (eNOS activity at increasing concentrations of CaM) was found to be 0.1 µM.
